# In PubChem BioAssay (EPA / NIEHS):
# Chains of the proteins cited; added tags and fusions are not shown. Lines headed by an entry give the natural chain unless they say otherwise; changes in a name come on top.
# UniProt Q03181: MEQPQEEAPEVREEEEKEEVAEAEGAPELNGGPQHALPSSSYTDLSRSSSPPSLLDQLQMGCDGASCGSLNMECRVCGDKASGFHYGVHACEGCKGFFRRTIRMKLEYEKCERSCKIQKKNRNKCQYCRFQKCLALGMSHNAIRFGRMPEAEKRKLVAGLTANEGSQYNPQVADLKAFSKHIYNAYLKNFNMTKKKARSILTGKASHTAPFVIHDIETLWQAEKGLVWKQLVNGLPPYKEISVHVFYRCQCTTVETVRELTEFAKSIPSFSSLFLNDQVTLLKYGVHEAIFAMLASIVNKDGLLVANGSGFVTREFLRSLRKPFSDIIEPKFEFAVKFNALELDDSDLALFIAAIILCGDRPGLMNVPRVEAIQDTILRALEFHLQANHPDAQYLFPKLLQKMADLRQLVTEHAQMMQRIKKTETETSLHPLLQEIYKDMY
# UniProt P10826, whole entry, looked up: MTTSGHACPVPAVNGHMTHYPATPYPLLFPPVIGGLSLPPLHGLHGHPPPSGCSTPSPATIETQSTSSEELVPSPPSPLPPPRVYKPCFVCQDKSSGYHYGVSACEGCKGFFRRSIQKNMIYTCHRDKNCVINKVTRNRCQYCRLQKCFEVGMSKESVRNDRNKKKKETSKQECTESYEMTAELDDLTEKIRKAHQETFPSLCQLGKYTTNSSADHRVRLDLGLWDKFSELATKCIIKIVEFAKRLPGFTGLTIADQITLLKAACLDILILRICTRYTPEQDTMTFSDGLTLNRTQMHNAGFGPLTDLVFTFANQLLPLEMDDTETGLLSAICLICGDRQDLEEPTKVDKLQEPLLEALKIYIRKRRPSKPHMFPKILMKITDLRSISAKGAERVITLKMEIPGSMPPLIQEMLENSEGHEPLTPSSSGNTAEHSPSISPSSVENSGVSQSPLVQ
# UniProt P10276, whole entry, looked up: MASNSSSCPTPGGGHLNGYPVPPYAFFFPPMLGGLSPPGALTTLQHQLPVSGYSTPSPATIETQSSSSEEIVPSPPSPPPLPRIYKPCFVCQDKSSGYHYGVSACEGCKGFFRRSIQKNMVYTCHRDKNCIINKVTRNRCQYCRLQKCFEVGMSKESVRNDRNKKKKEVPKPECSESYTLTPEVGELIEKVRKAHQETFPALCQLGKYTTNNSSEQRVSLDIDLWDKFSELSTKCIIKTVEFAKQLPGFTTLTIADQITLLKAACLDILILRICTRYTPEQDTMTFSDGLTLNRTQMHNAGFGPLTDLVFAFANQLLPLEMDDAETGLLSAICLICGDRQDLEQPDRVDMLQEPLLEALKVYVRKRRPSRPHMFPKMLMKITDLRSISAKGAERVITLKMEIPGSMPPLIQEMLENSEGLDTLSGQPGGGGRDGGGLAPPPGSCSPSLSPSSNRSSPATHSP
# UniProt P37231: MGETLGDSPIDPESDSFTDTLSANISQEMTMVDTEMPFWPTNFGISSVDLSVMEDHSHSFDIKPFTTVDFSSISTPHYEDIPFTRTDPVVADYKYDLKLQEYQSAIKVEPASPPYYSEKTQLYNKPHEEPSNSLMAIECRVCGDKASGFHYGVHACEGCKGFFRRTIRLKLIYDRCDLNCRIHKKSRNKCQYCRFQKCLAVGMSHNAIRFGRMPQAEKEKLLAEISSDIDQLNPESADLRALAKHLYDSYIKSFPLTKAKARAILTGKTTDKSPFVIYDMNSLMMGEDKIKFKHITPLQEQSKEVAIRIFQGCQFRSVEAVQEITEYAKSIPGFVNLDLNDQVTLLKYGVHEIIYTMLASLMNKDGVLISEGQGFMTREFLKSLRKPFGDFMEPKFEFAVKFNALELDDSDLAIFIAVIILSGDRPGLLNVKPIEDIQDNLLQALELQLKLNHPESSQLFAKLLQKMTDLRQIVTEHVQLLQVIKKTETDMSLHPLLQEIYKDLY
# UniProt Q07869: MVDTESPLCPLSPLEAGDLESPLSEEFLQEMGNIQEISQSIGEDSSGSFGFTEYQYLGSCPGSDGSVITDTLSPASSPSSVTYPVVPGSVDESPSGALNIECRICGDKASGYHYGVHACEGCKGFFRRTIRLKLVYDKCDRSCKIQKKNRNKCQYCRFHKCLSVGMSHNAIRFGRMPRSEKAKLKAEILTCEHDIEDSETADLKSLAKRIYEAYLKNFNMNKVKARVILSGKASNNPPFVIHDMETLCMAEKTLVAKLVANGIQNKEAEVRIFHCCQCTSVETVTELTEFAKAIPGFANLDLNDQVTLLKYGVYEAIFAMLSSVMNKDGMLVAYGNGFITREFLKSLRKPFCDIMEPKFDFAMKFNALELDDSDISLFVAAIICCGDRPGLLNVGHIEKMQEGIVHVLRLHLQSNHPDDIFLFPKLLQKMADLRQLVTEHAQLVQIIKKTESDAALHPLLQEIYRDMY
# “And” between values parts separate entries of the source, which are not always exact repeats. Identical values can stand only once. Only a part is listed here, and it is no random draw. Results filed as inconclusive are left out. Some structures have more than one record in an assay (separate samples or runs), and their calls can disagree. The source made the active and inactive calls. How the source made its calls, unless noted: active means hit-call score of the fitted dose curve at least 0.9, where 1 is the maximum; inconclusive means response in the unintended direction; inactive means score below 0.9.
# Experiments:
# [1] = molecular target: human Peroxisome Proliferator-activated Receptor delta (PPARd), PPARD (gene 5467) (UniProt Q03181); assay: ATG_PPARd_TRANS: Attagene TRANS-FACTORIAL HepG2 Assay for human Peroxisome Proliferator-activated Receptor delta (PPARd) (AID 2283002)
# Method: (§1) ATG_TRANS is a cell-based, multiplexed-readout assay that uses HepG2, a human liver cell line, with measurements taken at 24 hours after chemical dosing in a 24-well plate.ATG_PPARd_TRANS is one of 30 assay component(s) measured or calculated from the ATG_TRANS assay. It is designed to make measurements of mRNA induction, a form of inducible reporter, as detected with fluorescence intensity signals by Reverse transcription polymerase chain reaction (RT-PCR) and Capillary electrophoresis technology.Data from the assay component ATG_PPARd_TRANS was analyzed into 1 assay endpoint. This assay endpoint, ATG_PPARd_TRANS, was analyzed in the positive analysis fitting direction relative to DMSO as the negative control and baseline of activity. Using a type of inducible reporter, measures of mRNA for gain-of-signal activity can be used to understand the reporter gene at the transcription factor-level as they relate to the gene PPARD. Furthermore, this assay endpoint can be referred to as a primary readout, because this assay has produced multiple assay endpoints where this one serves a reporter gene function. To generalize the intended target to other relatable targets, this assay endpoint is annotated to the nuclear receptor intended target family, where the subfamily is non-steroidal.
# (§2) Human liver HepG2 cells are transiently transfected with multiple reporter transcription units (MRTUs) in 6-well plates using FuGene 6 reagent (Roche; 3 ml FuGene/1 mg DNA). The MRTU constructs are regulated by a cis-regulating element (promoter). […] A major difference between the CIS and TRANS system is that in CIS activities of endogenous TFs are measured, whereas the TRANS assay evaluates changes in activities of exogenous, chimeric NR-Gal4 proteins. […] At the end of 24 hour incubation, total RNA was isolated using TriZol reagent (Invitrogen). The isolated RNA is then reverse-transcribed using oligo(dT) primer and Mo-MLV reverse transcriptase (Invitrogen) with DNAse I (Ambion) treatment for 30 min. The one-tenth of the produced cDNA was amplified by PCR using Taq DNA polymerase (Invitrogen) and two reporter sequence-specific primers. The PCR products were fluorescently labeled by primer extension with 6-arboxyfluorescein (6-FAM) 5'-labeled reporter sequence-specific primer (2 min at 95 C, 20 s at 68 C and 10 min at 72 C) and these products were digested with 5U of HpaI (New England Biolabs) for 2h at 37 C. The fragments were purified using Qiaquick PCR columns (Qiagen), analyzed on an ABI 3130xL genetic analyzer (Applied Biosystems) with peak positions identified by using a set of X-rhodamine (ROX)-labeled MapMarker1000 molecular weight standards (BioVentures). The raw capillary electrophoresis data was processed using Attagraph software (Attagene).
# [2] = molecular target: human Retinoic Acid Receptor beta (RARb), RARB (gene 5915) (UniProt P10826); assay: ATG_RARb_TRANS: Attagene TRANS-FACTORIAL HepG2 Assay for human Retinoic Acid Receptor beta (AID 2283004)
# Method: as §1, with “plate.ATG_RARb_TRANS” for “plate.ATG_PPARd_TRANS”, “ATG_RARb_TRANS” for “ATG_PPARd_TRANS”, “ATG_RARb_TRANS,” for “ATG_PPARd_TRANS,”, “RARB.” for “PPARD.”
# as §2
# [3] = molecular target: Retinoic acid receptor alpha (Homo sapiens) (UniProt P10276); assay: ATG_RARa_TRANS: Attagene TRANS-FACTORIAL HepG2 Assay for human Retinoic Acid Receptor alpha (RARa) (AID 2283005)
# Procedure, shortened: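 HepG2 cells transiently transfected with multiple reporter units expressing chimeric RARα-GAL4 fusion, with GAL4-UAS-driven reporters. After 24 h compound exposure, reporter mRNA induction quantified by RT-PCR and capillary electrophoresis with fluorescent labeling; gain-of-signal fitted relative to DMSO control.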
# [4] = molecular target: Peroxisome proliferator-activated receptor gamma (Homo sapiens) (UniProt P37231); assay: ATG_PPARg_TRANS: Attagene TRANS-FACTORIAL HepG2 Assay for human Peroxisome Proliferator-activated Receptor-gamma (PPARg) (AID 2283007)
# Procedure, shortened: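 HepG2 cells transiently transfected with multiplexed GAL4-UAS reporter units and exogenous chimeric NR-Gal4 proteins; reporter mRNA quantified after 24 h compound exposure by RT-PCR, fluorescent labelling, HpaI digestion and capillary electrophoresis; gain-of-signal fitted versus DMSO baseline.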
# [5] = molecular target: human Peroxisome Proliferator-activated Receptor alpha (PPARa), PPARA (gene 5465) (UniProt Q07869); assay: ATG_PPARa_TRANS: Attagene TRANS-FACTORIAL HepG2 Assay for human Peroxisome Proliferator-activated Receptor alpha (PPARa) (AID 2283001)
# Procedure, shortened: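 Cells (HepG2) are transfected with multiple reporter transcription units, exposed to chemical for 24 h, then total RNA is reverse-transcribed and amplified. Labelled products are quantified by capillary electrophoresis; induction is referenced to DMSO.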
# [6] = BSK_3C_uPAR: BioMAP Diversity Plus: 3C Assay for Urokinase-type plasminogen activator receptor (uPAR) Biomarker Activity (AID 2282998; active means hit-call score of the fitted dose curve at least 0.9, where 1 is the maximum; inactive means score below 0.9); conditions: BioMAP 3C HUVEC, uPAR biomarker ELISA; actives raise or lower the signal
# Procedure, shortened: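 Endothelial primary cells of human umbilical vein origin received test chemical; 24 h later uPAR was assayed by ELISA. Fitting was bidirectional, DMSO as negative control.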
# [7] = BSK_3C_VCAM1: BioMAP Diversity Plus: 3C Assay for Vascular cell adhesion molecule 1 (VCAM1) Biomarker Activity (AID 2282999; active means hit-call score of the fitted dose curve at least 0.9, where 1 is the maximum; inactive means score below 0.9); conditions: BioMAP 3C HUVEC, VCAM1 ELISA, cytokine-stimulated; actives raise or lower the signal
# Method: (§3) BSK_3C is a cell-based, multiplexed-readout assay that uses umbilical vein endothelium, a human vascular primary cell, with measurements taken at 24 hours after chemical dosing in a 96-well plate.BSK_3C_VCAM1 is an assay component measured in the BSK_3C assay. It measures VCAM-1 antibody related to regulation of gene expression using ELISA technology.Data from the assay component BSK_3C_VCAM1 was analyzed into 1 assay endpoint. This assay endpoint, BSK_3C_VCAM1, was analyzed with bidirectional fitting relative to DMSO as the negative control and baseline of activity. Using a type of binding reporter, gain or loss-of-signal activity can be used to understand changes in the signaling as they relate to the gene VCAM1. Furthermore, this assay endpoint can be referred to as a primary readout, because this assay has produced multiple assay endpoints where this one serves a signaling function. To generalize the intended target to other relatable targets, this assay endpoint is annotated to the cell adhesion molecules intended target family, where the subfamily is Immunoglobulin CAM.
# (§4) The levels of cell surface (or secreted, indicated by the prefix "s") biomarker endpoints were measured by ELISA. Overt cytotoxicity to cells in confluent adherent cultures (all systems other than the BT system) was assessed by measuring total protein levels using sulforhodamine B (SRB) staining in parallel cultures at the time of biomarker measurements, indicated as SRB endpoints. For proliferation assays for adherent cell types, individual cell types are cultured at sub-confluence and relative cell numbers quantified by SRB staining at time points optimized for each system (48 h: 3C and CASM3C systems; 72 h: BT and HDF3CGF systems; 96 h: SAg system). SRB was performed by staining cells with 0.1% SRB after fixation with 10% TCA and reading wells at 560 nm.Viability and proliferation of PBMC (T cells) was quantified by Alamar Blue reduction for the SAg and BT systems. For PBMC viability (referred to as PBMC Cytotoxicity within the assay endpoint names), cells were plated (75,000/well in a 96-well plate) and then chemical samples added for 1 h before addition of activators, SEB and TSST-1 (20 ng/mL final concentration each). Cells were incubated for 90 h. Then, Alamar Blue (20 uL/well) (Invitrogen, Cat DAL1100) was added for 6 h, and the plates were read with a fluorescence microplate reader at 546/580 nm (excitation/emission). For PBMC proliferation, cells were plated and activated as above but incubated for only 16 h prior to addition of Alamar Blue. Plates were read after 6 h.
# [8] = BSK_4H_Eotaxin3: BioMAP Diversity Plus: 4H Assay for Eotaxin 3 Biomarker Activity (AID 2283000; active means hit-call score of the fitted dose curve at least 0.9, where 1 is the maximum; inactive means score below 0.9;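 on outcome: CCL26 protein level quantified by ELISA in parallel with SRB cytotoxicity check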); conditions: actives raise or lower the signal; primary human endothelial cells (HUVEC)
# Procedure, shortened: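 Chemicals were added to human umbilical vein endothelium cultures, and Eotaxin-3 was quantified by ELISA at 24 h. Values were derived by bidirectional fitting with DMSO serving as negative control and activity baseline.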
# [9] = read-out: Intercellular Adhesion Molecule 1 (ICAM1), ICAM1 (gene 3383); assay: BSK_3C_ICAM1: BioMAP Diversity Plus: 3C Assay for Intercellular Adhesion Molecule 1 (ICAM1) Biomarker Activity (AID 2283003; active means hit-call score of the fitted dose curve at least 0.9, where 1 is the maximum; inactive means score below 0.9); conditions: actives raise or lower the signal; primary human endothelial cells (HUVEC)
# Method: as §3, with “plate.BSK_3C_ICAM1” for “plate.BSK_3C_VCAM1”, “ICAM-1” for “VCAM-1”, “BSK_3C_ICAM1” for “BSK_3C_VCAM1”, “BSK_3C_ICAM1,” for “BSK_3C_VCAM1,”, “ICAM1.” for “VCAM1.”
# as §4
# [10] = BSK_3C_Proliferation: Cell Proliferation Assessment in the BioMAP Diversity Plus: 3C Assay (AID 2283006; active means hit-call score of the fitted dose curve at least 0.9, where 1 is the maximum; inactive means score below 0.9;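 on AC50: potency may reflect either rise or fall in cell number versus DMSO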); conditions: primary human endothelial cells (HUVEC)
# Procedure, shortened: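 Cells (human umbilical vein endothelial, sub-confluent) receive test chemical; after 48 h they are fixed in 10% trichloroacetic acid, stained with 0.1% SRB and read at 560 nm. Activity is referenced to DMSO, fitting increases and decreases.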
compound,measurement,setting,value
CCCCOP(OCCCC)OCCCC,outcome,[1],inactive
same,outcome,[2],inactive
same,outcome,[3],inactive
same,AC50,[4],active: 34 µM
O=[P+](Oc1ccccc1)Oc1ccccc1,outcome,[1],inactive
same,outcome,[2],inactive
CCCCO[P+](=O)OCCCC,outcome,[5],inactive
same,outcome,[4],inactive
CCCCC(CC)CO[P+](=O)OCC(CC)CCCC (configuration not stated),outcome,[4],inactive
O=[p+]1oc2ccccc2c2ccccc21 (configuration not stated),outcome,[5],inactive
same,outcome,[4],inactive
CC(C)CCCCCCCOP(OCCCCCCCC(C)C)Oc1ccccc1,outcome,[5],inactive
same,outcome,[1],inactive
same,AC50,[4],active: 36.6 µM
O=[N+]([O-])c1ccc([N+](=O)[O-])cc1,outcome,[6],inactive
same,AC50,[7],active: 7.91 µM
same,outcome,[8],inactive
same,outcome,[1],inactive
same,outcome,[9],inactive
same,AC50,[10],active: 20 µM
same,outcome,[4],inactive
Cc1cc([N+](=O)[O-])cc([N+](=O)[O-])c1O,AC50,[6],active: 14.6 µM
same,outcome,[7],inactive
same,outcome,[5],inactive
same,outcome,[1],inactive
same,outcome,[9],inactive
same,outcome,[3],inactive
same,outcome,[10],inactive
CN(C(=O)Cc1cccc2occc12)[C@H]1CC[C@@]2(CCCO2)C[C@@H]1N1CCCC1,outcome,[6],inactive
same,outcome,[7],inactive
same,outcome,[8],inactive
same,outcome,[9],inactive
same,outcome,[3],inactive
same,outcome,[10],inactive
same,outcome,[4],inactive
O=C(Cl)OCCOC(=O)Cl,outcome,[5],inactive
same,outcome,[2],inactive
O=[As]c1ccccc1 (configuration not stated),outcome,[4],inactive
ClP(Cl)c1ccccc1,outcome,[3],inactive
same,outcome,[4],inactive
O=C1C2CC=CCC2C(=O)N1SC(Cl)(Cl)C(Cl)Cl (configuration not stated),AC50,[7],active: 8.85 µM
same,outcome,[5],inactive
same,outcome,[1],inactive
same,outcome,[2],inactive
same,AC50,[10],active: 3.15 µM
same,outcome,[4],inactive
CC(C)OP(=S)(OC(C)C)SCCNS(=O)(=O)c1ccccc1,AC50,[7],active: 34.2 µM and active: 31 µM and active: 37 µM
same,AC50,[8],active: 31.3 µM and active: 37.8 µM
same,outcome,[5],inactive
same,AC50,[9],active: 32.8 µM
same,outcome,[9],inactive
same,outcome,[4],inactive
O=P(Cl)(Oc1ccccc1)Oc1ccccc1,outcome,[1],inactive
same,outcome,[4],inactive
O=C(Cl)Oc1ccccc1,outcome,[6],inactive
same,outcome,[7],inactive
same,outcome,[8],inactive
same,outcome,[5],inactive
same,outcome,[1],inactive
same,outcome,[9],inactive
same,outcome,[2],inactive
same,outcome,[3],inactive
same,outcome,[10],inactive
same,outcome,[4],inactive
N#CSc1ccc([N+](=O)[O-])cc1[N+](=O)[O-],outcome,[5],inactive
same,outcome,[1],inactive
same,outcome,[4],inactive
